# Antibody variant affinities, Ab-14 light chain, assay B

Reference: Li et al. 2023, doi:10.1038/s41467-023-39022-2. File: FLAb, binding data.

Antigen: PDVDLGDISGINAS, a 14-residue peptide of the SARS-CoV-2 spike HR2 region.

The variants keep the heavy chain, the linker and the frameworks of Ab-14 (scFv order VH, a (GGGGS)3 linker, VL).
VH: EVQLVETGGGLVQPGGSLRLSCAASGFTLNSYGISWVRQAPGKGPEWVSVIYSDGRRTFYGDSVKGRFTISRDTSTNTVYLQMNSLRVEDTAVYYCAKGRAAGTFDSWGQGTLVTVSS
VL: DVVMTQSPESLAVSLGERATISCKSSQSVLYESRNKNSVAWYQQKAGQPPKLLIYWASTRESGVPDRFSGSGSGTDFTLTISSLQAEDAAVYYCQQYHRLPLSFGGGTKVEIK

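Phage display of a naive human antibody library on the peptide gave the parent. This is the validation round: designs drawn from the data on random variants, tested in the same kind of assay. Group labels follow the data file (Ctrl: baseline library sampled from a position-specific scoring matrix, with some repeated check sequences; En: ensemble of fine-tuned language models; GP: Gaussian process model; HC: hill climbing; Gen: genetic algorithm; Gibbs: Gibbs sampling; a sequence that several methods proposed may carry one label only). In AlphaSeq, yeast of one mating type display the scFv and yeast of the other type display the target. After mating in shaken culture at 30 °C for 16 h, diploids were selected and their barcode pairs sequenced. The ratio of observed to expected reads was calibrated, replicate by replicate, on BCL2-family standards whose Kd was known from biolayer interferometry. The assay was run in six technical replicates.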

The parent's light chain CDRs are KSSQSVLYESRNKNSVA, WASTRES, QQYHRLPLS; each variant's own CDRs replace them letter for letter. The Kd shown is the geometric mean over detected replicates; a lower Kd is a better binder. "nd" means that the variant was in the library but no mating with the target was seen in any replicate; the authors take this as a sign of poor binding, and no number exists. As a blank, each scFv also met three strains without target: over all light chain designs, 4% of these pairings were detected, typically at 430 nM and seldom below 38 nM.

CDR-L1	CDR-L2	CDR-L3	group	apparent Kd	replicates with signal
HITYGMMVAGRHSSSIA	QAEERAK	QQYDRLPLS	En_Gen	5.2 nM	6 of 6
KLQQSWEYESRNSNNVA	MGSQRED	QQYHRLPLS	GP_Gibbs	2.5 nM	6 of 6
NLSIQNQPQNMSANAVA	QTESRCE	QQYAQLPLA	En_Gibbs	160 nM	6 of 6
KLQQWVLYEGRNKNSVA	SASTRSD	QQYHRLPLS	GP_Gibbs	890 pM	6 of 6
MISDTGLHDSRMQNSVA	NNSTREY	QQYHRLPLS	En_HC	83 nM	4 of 6
NFPQEVMYESHFKNNVA	QTSTREE	QQYDHLPLS	En_HC	1.1 nM	6 of 6
KLYQSMGYLSHAKNSIA	DMSRREN	QQYHRLPLS	En_HC	1.8 nM	6 of 6
KLSGSVLYESRNKNSVA	NASTRES	QQYHRLPLS	GP_Gen	370 pM	6 of 6
NVSWKQSGFENEWMAVA	NTSERNA	QQYARLPIS	En_Gibbs	83 nM	6 of 6
KSSISYLEESRNKNSVA	EASARES	QQYHRLPLS	GP_HC	950 pM	6 of 6
KIIQSVLYESMNKNSVA	WASTRES	QQYVRLPLS	Ctrl	140 nM	5 of 6
KSSQSVLYESRNKNSVA	KASTRES	FQYHRVPLS	Ctrl	nd	0 of 6
MVSQLMLWGLHAKNSIA	EAEHRCN	QQYDRLPLF	En_Gen	48 nM	6 of 6
KLDQSYLYESRNKNSVA	EASERES	QQYHRLPLY	GP_Gibbs	580 pM	6 of 6
KLSVSMLLEQFHKNNVA	ENSTREE	QHYHRLPLS	En_HC	nd	0 of 6
AISQMLEPAAQNSSSIA	EADRVTE	QQYSKLPLT	En_Gibbs	8.3 nM	6 of 6
KVPFSVLYESRNKNSVA	QASTREK	QQYHRLPLS	GP_Gibbs	2.8 nM	6 of 6
KESQSWLYESRNKNSVA	GASQRES	QQYHRLPLS	GP_HC	4.7 nM	6 of 6
KLQQLDLYGSRNKNSVA	QASTRMV	QAYHRLPLS	GP_Gibbs	1.7 nM	6 of 6
KFSQSVLYESRNKASVA	DASTRMS	QQYHRLPLS	GP_Gibbs	680 pM	6 of 6
KFSQSGLYESRTKNGVA	NASTRES	QQYHRLPLS	GP_HC	1.4 nM	6 of 6
KLSQSVKYEDRNWNNVA	NASTRES	QAYHRLPLS	GP_Gibbs	2.9 nM	6 of 6
KLSQSHLYESRNVNNVA	EASYRMD	QQYHRLPLS	GP_Gibbs	700 pM	6 of 6
KLTQSVLYESRNKNSVA	NASTRES	QQYHRLPLS	GP_Gen	420 pM	6 of 6
HSSPSEPYESRNKNSVA	NASTREE	QQYHRLPLS	GP_HC	740 pM	6 of 6
KSSQSLLYESDNKNSVA	WASTRES	QQYHRLPLS	Ctrl	19 nM	6 of 6
KSSQSVLYESRNKNSVA	WASTRES	QQYHRMPLS	Ctrl	2.6 µM	1 of 6
KLSQSVLYESRNKNSVA	GASTRFS	QQYHRLPLS	GP_Gen	700 pM	6 of 6
KWSQLVLGEERNKMSVA	NASQREE	QQYHRLPLS	GP_Gibbs	1.6 nM	6 of 6
KLSQSYLYESRNKNSVA	NASTREV	QQYHRLPLS	GP_Gen	1.3 nM	6 of 6
KAQDGELYESRDDNSVA	NASKRLS	QQYHRLPLS	GP_Gibbs	2.8 nM	6 of 6
KLSMSVLYESRNKNSVA	EASTREV	QQYHRLPLS	GP_Gen	800 pM	6 of 6
KLSQSVDYLSRNMNNVA	NASTRES	QDYHRLPLS	GP_Gibbs	1.6 nM	6 of 6
KIAQSMNLTSHHINSVA	QSTTREE	QQYNHLPLS	En_HC	55 nM	6 of 6
KLSLSVLLESRNKNSVA	NASTRES	QQYHRLPLS	GP_HC	730 pM	6 of 6
KLSWSDLYESRNKNSVA	GASTRES	QQYHRLPLS	GP_Gen	590 pM	6 of 6
YFSEQYKTDREQQYSIA	GMDIREK	QQYGRLPLT	En_Gibbs	38 nM	5 of 6
KSSQSWLYESRNFNSVA	NASTRES	QQYHRLPLS	GP_Gen	1.0 nM	6 of 6
MVSQLMVWGMHKKNSIA	EAQTRCN	QQYDRLPLF	En_Gen	170 nM	6 of 6
KLSQSVLYESRNKNSVA	HASTRCS	QQYHRLPLS	GP_Gen	1.6 nM	6 of 6
KSSQSDLYESANKNSVA	WASTRES	QQYHRLPLS	Ctrl	19 nM	6 of 6
KFSQWVLYESRQKNSVA	NASTRES	QQYHRLPLS	GP_HC	330 pM	6 of 6
KVSQSVLYESRQKNSVA	NASTRES	QQMHRLPLS	GP_HC	nd	0 of 6
KLDQSHLYESRNWNSVA	NANTREE	QQYHRLPLS	GP_Gibbs	1.7 nM	6 of 6
KQEQSVMGESRWKNSVA	NASTRMS	QQYHRLPLS	GP_Gibbs	2.7 nM	6 of 6
KLPQWQLYESRNKNNVA	NASTREM	QQYHRLPLS	GP_Gibbs	1.5 nM	6 of 6
KIYELGKGSIKINNNIA	QTDIREL	QSYNRLPLS	En_Gibbs	1.4 nM	6 of 6
HITPSFMVESRLKNSVA	QTSTRES	QQYDRLPLS	En_HC	2.6 nM	6 of 6
KMSQSVLYESRNPNSVA	QASTRES	QQYHRLPLS	Ctrl	1.3 nM	6 of 6
SLGLVTMLEEYARNSVA	NNSTREE	QQYDRLPLS	En_Gen	130 nM	2 of 6
TLVQSVMGGSRTANSVA	NAETRYD	QHYHRLPLS	En_HC	16 nM	5 of 6
TLGQSTLMESRNRNNVA	QMSTREK	QQYDRLPLS	En_HC	4.0 nM	6 of 6
KSSQSVLYESRNKNSVA	WASTRYS	QQYHRLPNS	Ctrl	33 nM	1 of 6
KLCQSVLYESRNKNSVA	HASTRED	EQYHRLPLS	GP_HC	810 pM	6 of 6
KLSQSMEYESRNKNSVA	HASTRES	QQYHRLPLS	GP_Gen	680 pM	6 of 6
KLSQSNLYESRNKNSVA	EASTRCS	QQYHRLPLS	GP_Gen	870 pM	6 of 6
KVQQSELYESRNKNSVA	NASYRES	QQYHRLPLS	GP_Gen	950 pM	6 of 6
NVGQTMDGESRNKNSVA	HQSTRED	QHYHRLPLS	En_HC	7.2 nM	6 of 6
KLREVQHVETKQKNNVA	DNSTRES	QDYHRLPLS	En_HC	180 nM	6 of 6
KMSMSVLYEDRHQNSVA	NASTRFM	QQYHRLPLS	GP_Gibbs	5.6 nM	6 of 6
KLSQSCLYESRNKNSVA	EASTRES	QQYHRLPLS	GP_Gen	2.1 nM	6 of 6
KIGQTTTYHSQVGNSIA	QTSTREE	QQYHRLPLS	En_HC	1.4 nM	6 of 6
KVRQSTLYESRNKNSVA	DASTRNS	QQYHRLPLS	GP_HC	2.2 nM	6 of 6
TLSQSMDMTSKNVNSVA	DLTTRGN	QQYHRLPLS	En_HC	2.0 nM	6 of 6
KISQSYLMESRNCNSVA	NASTRLW	QQYHRLPLS	GP_Gibbs	1.9 nM	6 of 6
KLSQSTLYEMRNTNSVA	QASTRLQ	QQYHRLPLS	GP_Gibbs	4.4 nM	6 of 6
KFSWSVLFESRNKNSVA	DASTRES	QQYHRLPLS	GP_HC	510 pM	6 of 6
KSSQSVLYENRNKNSVA	WASTRES	QQYHRLPLS	Ctrl	48 nM	3 of 6
KISMLYNFASTNKNSIA	EMTTREA	QHYHRLPLS	En_HC	12 nM	6 of 6
KSSQSVLGESRNKNSVA	WASTRES	QQYIRLPLS	Ctrl	94 nM	5 of 6
KFSQSVLYESRTKNSVA	NAVTRES	QQYHRLPLS	GP_HC	1.5 nM	6 of 6

11 of these entries, quoted again:

{"CDR-L1": "NLSIQNQPQNMSANAVA", "CDR-L2": "QTESRCE", "CDR-L3": "QQYAQLPLA", "group": "En_Gibbs", "apparent Kd": "160 nM", "replicates with signal": "6 of 6"}
{"CDR-L1": "KSSQSLLYESDNKNSVA", "CDR-L2": "WASTRES", "CDR-L3": "QQYHRLPLS", "group": "Ctrl", "apparent Kd": "19 nM", "replicates with signal": "6 of 6"}
{"CDR-L1": "KLDQSHLYESRNWNSVA", "CDR-L2": "NANTREE", "CDR-L3": "QQYHRLPLS", "group": "GP_Gibbs", "apparent Kd": "1.7 nM", "replicates with signal": "6 of 6"}
{"CDR-L1": "KLSQSVLYESRNKNSVA", "CDR-L2": "GASTRFS", "CDR-L3": "QQYHRLPLS", "group": "GP_Gen", "apparent Kd": "700 pM", "replicates with signal": "6 of 6"}
{"CDR-L1": "HITYGMMVAGRHSSSIA", "CDR-L2": "QAEERAK", "CDR-L3": "QQYDRLPLS", "group": "En_Gen", "apparent Kd": "5.2 nM", "replicates with signal": "6 of 6"}
{"CDR-L1": "MVSQLMLWGLHAKNSIA", "CDR-L2": "EAEHRCN", "CDR-L3": "QQYDRLPLF", "group": "En_Gen", "apparent Kd": "48 nM", "replicates with signal": "6 of 6"}
{"CDR-L1": "KMSMSVLYEDRHQNSVA", "CDR-L2": "NASTRFM", "CDR-L3": "QQYHRLPLS", "group": "GP_Gibbs", "apparent Kd": "5.6 nM", "replicates with signal": "6 of 6"}
{"CDR-L1": "KLSMSVLYESRNKNSVA", "CDR-L2": "EASTREV", "CDR-L3": "QQYHRLPLS", "group": "GP_Gen", "apparent Kd": "800 pM", "replicates with signal": "6 of 6"}
{"CDR-L1": "NFPQEVMYESHFKNNVA", "CDR-L2": "QTSTREE", "CDR-L3": "QQYDHLPLS", "group": "En_HC", "apparent Kd": "1.1 nM", "replicates with signal": "6 of 6"}
{"CDR-L1": "KQEQSVMGESRWKNSVA", "CDR-L2": "NASTRMS", "CDR-L3": "QQYHRLPLS", "group": "GP_Gibbs", "apparent Kd": "2.7 nM", "replicates with signal": "6 of 6"}
{"CDR-L1": "KLSQSNLYESRNKNSVA", "CDR-L2": "EASTRCS", "CDR-L3": "QQYHRLPLS", "group": "GP_Gen", "apparent Kd": "870 pM", "replicates with signal": "6 of 6"}

A sequence measured in both rounds can read differently, since the two assays cover different ranges. The authors averaged sequences with at least three values out of six and counted those with two or fewer as poor binders. Of ten entries with the parent sequence, four were seen in most replicates (averages 2.2 nM to 240 nM), three in one and three in none, so single entries are noisy.